# Measured values taken from patent publication US8742072B2, “Bone growth particles and osteoinductive composition thereof” (Zimmer Orthobiologics, Inc., priority 2006, dated 2014).
# How the values were obtained:
# [1] = tested on: acid-soluble BMPs; settings: surface chemistry: alkaline (TCP, HA), moderately acidic (dical); cited from earlier work
# [2] = Source text: Biologically compatible, sparingly soluble calcium phosphates are suitable supplements to locally increase the supply of soluble calcium [Ca^2+] and phosphate [PO4^3−] ions.
substance,measurement,setting,value
calcium hydroxyapatite [Ca5(PO4)3(OH) (HA)],binding of acid-soluble BMPs / acidic proteins,[1],strongly bind
same,Equilibrium [Ca^2+],[2],2.2 µM
same,Equilibrium [PO4^3−],[2],1.3 µM
same,Insoluble fraction [200 mg/cc],[2],99.9999 wt. %
